# Values quoted from earlier work as cited in patent US20040043919A1, “Method for the treatment of neurological and neuropsychological disorders” (priority 2003, published 2004).
# Amino acid sequences for entries named in this document (tags omitted).
# UniProt P21555, whole entry: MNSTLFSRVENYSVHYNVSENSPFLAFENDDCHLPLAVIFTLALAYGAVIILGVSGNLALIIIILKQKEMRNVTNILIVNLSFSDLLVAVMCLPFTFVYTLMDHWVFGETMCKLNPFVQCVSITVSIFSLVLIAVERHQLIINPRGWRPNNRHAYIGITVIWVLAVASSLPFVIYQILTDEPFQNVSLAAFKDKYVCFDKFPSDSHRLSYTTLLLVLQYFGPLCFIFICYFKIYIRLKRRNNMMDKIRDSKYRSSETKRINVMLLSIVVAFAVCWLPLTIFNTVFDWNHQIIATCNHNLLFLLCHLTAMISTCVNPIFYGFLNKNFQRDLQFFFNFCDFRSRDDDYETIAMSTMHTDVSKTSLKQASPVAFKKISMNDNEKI
# Target: T1, NPY Y1 receptor (Rattus norvegicus, UniProt P21555)
# T1 construct: i.c.v. injection of the Y1 antagonist; host or cells: living animal (brain, i.c.v. injection)
# Settings: i.c.v. injection; without any locomotor deficit; cited from earlier work
smiles,measurement,value
NC(N)=NCCC[C@@H](NC(=O)C(c1ccccc1)c1ccccc1)C(=O)NCc1ccc(O)cc1 [BIBP3226],Effect in the elevated plus-maze test,anxiogenic-like effects
